In PubChem BioAssay (NCI):
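Tested at 5 concentrations; 48 h exposure; 96-well plates; endpoints linearly interpolated, else capped at highest concentration. GI50 marks 50% less growth. TGI marks complete inhibition of growth.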

Assays:
Test in all cases: inhibition of tumour cell growth, NCI panel, 48 h
786-0 renal = tested on: 786-0 renal
A498 renal = tested on: A498 renal
A549 NSCLC = tested on: A549 NSCLC
ACHN renal = tested on: ACHN renal
BT-549 breast = tested on: BT-549 breast
CAKI-1 renal = tested on: CAKI-1 renal
CCRF-CEM leukemia = tested on: CCRF-CEM leukemia
COLO 205 colon = tested on: COLO 205 colon
DU-145 prostate = tested on: DU-145 prostate
EKVX NSCLC = tested on: EKVX NSCLC
HCC-2998 colon = tested on: HCC-2998 colon
HCT-116 colon = tested on: HCT-116 colon
HCT-15 colon = tested on: HCT-15 colon
HOP-62 NSCLC = tested on: HOP-62 NSCLC
HOP-92 NSCLC = tested on: HOP-92 NSCLC
HS 578T breast = tested on: HS 578T breast
HT29 colon = tested on: HT29 colon
KM12 colon = tested on: KM12 colon
LOX IMVI melanoma = tested on: LOX IMVI melanoma
M14 melanoma = tested on: M14 melanoma
MALME-3M melanoma = tested on: MALME-3M melanoma
MCF7 breast = tested on: MCF7 breast
MDA-MB-231 breast = tested on: MDA-MB-231 breast
MDA-MB-435 = tested on: MDA-MB-435
MDA-N = tested on: MDA-N
NCI-H226 lung = tested on: NCI-H226 lung
NCI-H23 lung = tested on: NCI-H23 lung
NCI-H322M lung = tested on: NCI-H322M lung
NCI-H460 lung = tested on: NCI-H460 lung
NCI-H522 lung = tested on: NCI-H522 lung
NCI/ADR-RES ovarian = tested on: NCI/ADR-RES ovarian
OVCAR-3 ovarian = tested on: OVCAR-3 ovarian
OVCAR-8 ovarian = tested on: OVCAR-8 ovarian
PC-3 prostate = tested on: PC-3 prostate
RPMI-8226 leukemia = tested on: RPMI-8226 leukemia
RXF 393 renal = tested on: RXF 393 renal
SF-268 CNS = tested on: SF-268 CNS
SF-295 CNS = tested on: SF-295 CNS
SF-539 CNS = tested on: SF-539 CNS
SK-MEL-2 melanoma = tested on: SK-MEL-2 melanoma
SK-MEL-5 melanoma = tested on: SK-MEL-5 melanoma
SK-OV-3 ovarian = tested on: SK-OV-3 ovarian
SN12C renal = tested on: SN12C renal
SNB-19 CNS = tested on: SNB-19 CNS
SW-620 colon = tested on: SW-620 colon
T-47D breast = tested on: T-47D breast
TK-10 renal = tested on: TK-10 renal
U251 CNS = tested on: U251 CNS
UACC-257 melanoma = tested on: UACC-257 melanoma
UACC-62 melanoma = tested on: UACC-62 melanoma
UO-31 renal = tested on: UO-31 renal

O=[N+]([O-])c1cc([N+](=O)[O-])c2nsnc2c1
GI50 (786-0 renal): 2.68 µM | TGI (786-0 renal): 9.86 µM | GI50 (A498 renal): 19.3 µM | TGI (A498 renal): 36.4 µM | GI50 (A549 NSCLC): 20.7 µM | TGI (A549 NSCLC): 39.1 µM | GI50 (ACHN renal): 3.3 µM | TGI (ACHN renal): 9.97 µM | GI50 (BT-549 breast): 16.3 µM | TGI (BT-549 breast): 30.5 µM | GI50 (CAKI-1 renal): 8.73 µM | TGI (CAKI-1 renal): 22 µM | GI50 (CCRF-CEM leukemia): 1.92 µM | TGI (CCRF-CEM leukemia): 4.95 µM | GI50 (COLO 205 colon): 8.15 µM | TGI (COLO 205 colon): 20.3 µM | GI50 (DU-145 prostate): 16.7 µM | TGI (DU-145 prostate): 31.4 µM | GI50 (EKVX NSCLC): 20.9 µM | TGI (EKVX NSCLC): 37.7 µM | GI50 (HCC-2998 colon): 19.7 µM | TGI (HCC-2998 colon): 35.9 µM | GI50 (HCT-116 colon): 2.67 µM | TGI (HCT-116 colon): 10.4 µM | GI50 (HCT-15 colon): 8.31 µM | TGI (HCT-15 colon): 21.5 µM | GI50 (HOP-62 NSCLC): 21.3 µM | TGI (HOP-62 NSCLC): 37.7 µM | GI50 (HOP-92 NSCLC): 20.3 µM | TGI (HOP-92 NSCLC): 35.6 µM | GI50 (HS 578T breast): 23.6 µM | TGI (HS 578T breast): 44 µM | GI50 (HT29 colon): 18.9 µM | TGI (HT29 colon): 33.8 µM | GI50 (KM12 colon): 19.3 µM | TGI (KM12 colon): 35.5 µM | GI50 (LOX IMVI melanoma): 1.8 µM | TGI (LOX IMVI melanoma): 4.51 µM | GI50 (M14 melanoma): 13.7 µM | TGI (M14 melanoma): 28.3 µM | GI50 (MALME-3M melanoma): 19.4 µM | TGI (MALME-3M melanoma): 35 µM | GI50 (MCF7 breast): 2.14 µM | TGI (MCF7 breast): 5.74 µM | GI50 (MDA-MB-231 breast): 18.6 µM | TGI (MDA-MB-231 breast): 34.7 µM | GI50 (MDA-MB-435): 19.8 µM | TGI (MDA-MB-435): 34.7 µM | GI50 (MDA-N): 15 µM | TGI (MDA-N): 28.2 µM | GI50 (NCI-H226 lung): 3.13 µM | TGI (NCI-H226 lung): 14.9 µM | GI50 (NCI-H23 lung): 17 µM | TGI (NCI-H23 lung): 35 µM | GI50 (NCI-H322M lung): 23.8 µM | TGI (NCI-H322M lung): 40.4 µM | GI50 (NCI-H460 lung): 17.8 µM | TGI (NCI-H460 lung): 33 µM | GI50 (NCI-H522 lung): 1.73 µM | TGI (NCI-H522 lung): 3.39 µM | GI50 (NCI/ADR-RES ovarian): 17.1 µM | TGI (NCI/ADR-RES ovarian): 33.6 µM | GI50 (OVCAR-3 ovarian): 4.68 µM | TGI (OVCAR-3 ovarian): 27.2 µM | GI50 (OVCAR-8 ovarian): 15.8 µM | TGI (OVCAR-8 ovarian): 30.3 µM | GI50 (PC-3 prostate): 15.5 µM | TGI (PC-3 prostate): 32.6 µM | GI50 (RPMI-8226 leukemia): 2.25 µM | TGI (RPMI-8226 leukemia): 5.8 µM | GI50 (RXF 393 renal): 5.46 µM | TGI (RXF 393 renal): 18.4 µM | GI50 (SF-268 CNS): 16.3 µM | TGI (SF-268 CNS): 30 µM | GI50 (SF-295 CNS): 23.2 µM | TGI (SF-295 CNS): 42.9 µM | GI50 (SF-539 CNS): 2.2 µM | TGI (SF-539 CNS): 4.81 µM | GI50 (SK-MEL-2 melanoma): 17.1 µM | TGI (SK-MEL-2 melanoma): 33.9 µM | GI50 (SK-MEL-5 melanoma): 15.6 µM | TGI (SK-MEL-5 melanoma): 29 µM | GI50 (SK-OV-3 ovarian): 18.8 µM | TGI (SK-OV-3 ovarian): 32.8 µM | GI50 (SN12C renal): 16.4 µM | TGI (SN12C renal): 33.6 µM | GI50 (SNB-19 CNS): 20 µM | TGI (SNB-19 CNS): 34.2 µM | GI50 (SW-620 colon): 2.72 µM | TGI (SW-620 colon): 9.46 µM | GI50 (T-47D breast): 2.56 µM | TGI (T-47D breast): 7.19 µM | GI50 (TK-10 renal): 5.68 µM | TGI (TK-10 renal): 16.1 µM | GI50 (U251 CNS): 18.2 µM | TGI (U251 CNS): 32.3 µM | GI50 (UACC-257 melanoma): 17 µM | TGI (UACC-257 melanoma): 30.7 µM | GI50 (UACC-62 melanoma): 13.6 µM | TGI (UACC-62 melanoma): 28 µM | GI50 (UO-31 renal): 4.63 µM | TGI (UO-31 renal): 17.7 µM
